In patent publication US9795602B2, “Polycyclic-carbamoylpyridone compounds and their pharmaceutical use” (Gilead Sciences, Inc., priority 2014, dated 2017) one finds CC50 and IC50 data, which are given here for 4 molecules.

Sequences of proteins named here, by UniProt entry; tags and fusion partners are left off. A change or cut given only in a name is not applied to a line headed by its entry.
UniProt O15244: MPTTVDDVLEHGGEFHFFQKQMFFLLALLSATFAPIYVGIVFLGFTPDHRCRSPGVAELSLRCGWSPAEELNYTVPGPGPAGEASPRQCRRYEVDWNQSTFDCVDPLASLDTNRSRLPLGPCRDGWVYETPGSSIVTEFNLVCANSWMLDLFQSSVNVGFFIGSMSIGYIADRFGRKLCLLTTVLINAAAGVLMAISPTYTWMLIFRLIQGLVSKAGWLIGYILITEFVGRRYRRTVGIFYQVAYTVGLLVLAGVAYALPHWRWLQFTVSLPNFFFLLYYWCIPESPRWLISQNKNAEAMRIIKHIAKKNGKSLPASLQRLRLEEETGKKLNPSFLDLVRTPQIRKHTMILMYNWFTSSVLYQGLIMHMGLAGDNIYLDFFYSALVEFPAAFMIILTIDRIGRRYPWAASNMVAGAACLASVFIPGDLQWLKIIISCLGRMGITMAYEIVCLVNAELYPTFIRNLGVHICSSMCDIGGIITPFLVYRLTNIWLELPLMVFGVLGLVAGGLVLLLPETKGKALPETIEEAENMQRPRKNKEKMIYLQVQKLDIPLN

By CC50 is commonly meant the concentration that lowers cell viability or growth by half. A high value points to lower toxicity to the cells. As usually defined, the IC50 is the concentration needed to halve the response being measured.

A short description of data set [1]: Cytotoxicity (CC50) in MT4 cells, mock-infected. The format is cell-based. To be noted: human.
The target in a further data set is OCT2 (Homo sapiens (Human), UniProt O15244). Kind of data set: OCT2 inhibition assay (14C-TEA uptake, OCT2-transfected MDCKII cells). The format is cell-based.

`CN1C(=O)c2c(O)c(=O)c(C(=O)NCc3c(F)cc(F)cc3F)cn2[C@H]2CCC[C@H]21` [Compound 58] displayed a CC50 at 5 days in data set [1] of 10.9 µM. `O=C(NCc1c(F)cc(F)cc1F)c1cn2c(c(O)c1=O)C(=O)N[C@H]1CCC[C@H]12` [Compound 28] displayed an IC50 against OCT2 of 10 µM.

Turning to `CN1C(=O)c2c(O)c(=O)c(C(=O)NCc3c(F)cc(F)cc3F)cn2[C@@H]2CCC[C@@H]21` [Compound 29], in data set [1], the CC50 at 5 days stood at 16.7 µM. That is a double-digit micromolar value. Same read-out and setting: as for `CN1C(=O)c2c(O)c(=O)c(C(=O)NCc3c(F)cc(F)cc3F)cn2[C@@H]2CCC[C@H]21` [Compound 6], the figure is 22 µM.
